# Experimental data published in publication PMC5383082 (International Journal of Nanomedicine, 2017).
# Columns and labels:
# [1] = Tissue distribution of DOX after intravenous injection; type: in vivo; conditions: mice, i.v. 5 mg/kg
# Procedure, shortened: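 Male Kunming mice (~25 g, 6–8 weeks) received 5 mg/kg DOX equivalent intravenously. Heart, liver, spleen and kidney were collected at 30 min and 3 h. Tissue was homogenized in ethanol/HCl/water and centrifuged at 12,000 rpm for 15 min. DOX in the supernatant was measured by fluorescence spectrophotometry. n=4; mean ± SD.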
# [2] = Pharmacokinetic analysis of plasma DOX after intravenous injection; type: in vivo, Kunming mice; conditions: mice, i.v.
substance,measurement,setting,value
folate-polyethylene glycol-immunoglobulin G-doxorubicin [FA-PEG-IgG-DOX],DOX concentration in the liver at 0.5 h,[1]; 0.5 h,slightly lower DOX concentration
same,change of DOX distribution in the liver at 3 h,[1]; 3 h versus 0.5 h,increased DOX concentration
same,"circulating time, times longer than FA-IgG-DOX",[2],2 times
